In PubChem BioAssay AID2521 (Sanford-Burnham Center for Chemical Genomics, 2010):
The entries are a selection whose mix differs from that of the whole data set. The source made the active and inactive calls.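 The calls were made as follows: active = inhibition above about 40% at 20 µM (limit read from the data); inactive = the rest.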

Protein sequences, listed by entry. Tags and fused reporters are not part of them. Lines headed by an entry give the natural chain unless they say otherwise; changes in a name come on top.
UniProt P35414: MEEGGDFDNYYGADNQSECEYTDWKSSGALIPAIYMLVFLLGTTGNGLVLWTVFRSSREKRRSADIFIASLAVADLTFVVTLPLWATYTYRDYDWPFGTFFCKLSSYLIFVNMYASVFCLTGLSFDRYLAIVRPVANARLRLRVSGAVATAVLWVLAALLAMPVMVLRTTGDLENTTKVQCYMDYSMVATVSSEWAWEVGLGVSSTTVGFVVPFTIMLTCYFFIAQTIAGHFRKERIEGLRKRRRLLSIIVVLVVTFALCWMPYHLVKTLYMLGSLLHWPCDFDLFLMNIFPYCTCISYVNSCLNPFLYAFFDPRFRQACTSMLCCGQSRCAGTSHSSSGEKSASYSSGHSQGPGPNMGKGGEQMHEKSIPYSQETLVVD

Each compound was assayed against Apelin receptor (Homo sapiens) (UniProt P35414) (assay: antagonists of human apelin receptor APJ, primary screen, CHO-K1 cells, beta-arrestin complementation, luminescence (AID 2521;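 also: cells challenged with 10 nM apelin-13 agonist together with compound; plate controls were apelin-13 plus DMSO wells for no effect and DMSO wells lacking apelin-13 for full effect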)). Conditions: at 20 µM, stronger effect = higher value.

SMILES	inhibition
Nc1ccccc1[As](=O)(O)c1ccccc1	inactive: 0.154%
O=P(Nc1nccs1)(Oc1ccccc1)Oc1ccccc1	inactive: 4.37%
O=P(Nc1nccs1)(c1ccccc1)c1nc2ccccc2s1 (stereo not given)	inactive: 28.8%
CCOP1(=S)c2c(C)nn(CCC#N)c2N=C(c2ccccc2F)N1C (stereo not given)	inactive: 19%
CS(=O)(=O)c1cc([N+](=O)[O-])c2no[n+]([O-])c2c1	inactive: -36%
CN(C(=O)Cc1ccccc1)[C@@H]1CC[C@]2(CCCO2)C[C@H]1N1CCCC1	inactive: 19.3%
CCOP1(=S)c2c(C)nn(CCC#N)c2N=C(c2ccc(F)cc2)N1C (stereo not given)	inactive: 19.5%
N#CCCN(C(=O)COC(=O)C(O)(c1ccccc1)c1ccccc1)c1ccc(F)cc1	inactive: 21%
CN(C(=O)Cc1ccc(Cl)c(Cl)c1)[C@H]1CC[C@@]2(CCCO2)C[C@@H]1N1CCCC1	inactive: 9.47%
O=[N+]([O-])c1ccc2c(c1)nnn2O	inactive: -1.06%
CN(C)C(=O)c1cc([N+](=O)[O-])cc2c1-c1c(cc([N+](=O)[O-])cc1[N+](=O)[O-])C2=O	inactive: 26.1%
NC(=O)Nc1ccc([As](=O)(O)O)cc1	inactive: -0.956%
Cc1cccc(OCC(=O)OC2CN3CCC2CC3)c1 (stereo not given)	inactive: -7.28%
O=[As](O)(c1cccc(O)c1)c1cccc(O)c1	inactive: 5.65%
O=C(OC1CN2CCC1CC2)c1ccc(Cl)cc1 (stereo not given)	inactive: 19.2%
CS(=O)(=O)c1ccc(Cl)c(NC(=O)COC(=O)C(O)(c2ccccc2)c2ccccc2)c1	inactive: -2.79%
O=[As](O)(O)c1cccnc1	inactive: -13.4%
COc1cc(C(=O)NCC2(N3CCOCC3)CCCCC2)cc(Cl)c1OC(C)C	inactive: 13.7%
CCOP(=O)(Nc1cccc2ccccc12)OCC	inactive: 9.61%
COc1cc(C2NCCC3(OCCO3)C2(C)C)cc(OC)c1OC (stereo not given)	inactive: -3.69%
Cc1ccc(NCCc2c([N+](=O)[O-])cc([N+](=O)[O-])cc2[N+](=O)[O-])cc1	inactive: -6.16%
CCCOP(=S)(Nc1nc(N)cc(=O)[nH]1)OCCC	inactive: 5.3%
CC(C)(C)C(=O)NC(Sc1ncccn1)C(Cl)(Cl)Cl (stereo not given)	inactive: -24.9%

SMILES	inhibition
Clc1n[nH]nc1-c1nn[nH][15n]1	inactive: 2.14%
CCOP(=O)(NC(=NC(C)c1ccccc1)NC(C)c1ccccc1)OCC (stereo not given)	inactive: 9.2%
CCC1=CC2Cc3nc4ccc(Cl)cc4c(N)c3C(C1)C2 (stereo not given)	inactive: -0.784%
O=P1(Nc2ccccn2)COc2ccccc2OC1	inactive: -10.6%
CCOP(=O)(Nc1ccc(C)cn1)OCC	inactive: -23.2%
CN(CCCl)Cc1cc(Cl)c(NC2=NCCN2)c(Cl)c1	inactive: 1.15%
CN(C(=O)Cc1ccc(Cl)c(Cl)c1)[C@@H]1CCCC[C@H]1N1CCCC1	inactive: 16.5%
CC(C)/C=N\N=C(\N)N[N+](=O)[O-]	inactive: 2.16%
CC1(CBr)Cn2c(nc3ccccc3c2=O)S1 (stereo not given)	inactive: -25.3%
O=[As](O)(c1ccccc1Br)c1ccccc1Br	inactive: 14.7%
COc1ccccc1CNC(=O)COC(=O)C(O)(c1ccccc1)c1ccccc1	inactive: 12%
CN(C)C1(CNC(=O)c2ccc(S(C)(=O)=O)cc2)CCCCC1	inactive: 15.1%
O=C(/C=C/c1ccccc1)OC1CN2CCC1CC2 (stereo not given)	inactive: 16%
Cc1ccc(C(=O)OC2CN3CCC2CC3)cc1 (stereo not given)	inactive: 20.5%
CC1CCC(C(C)C)C(OP(=O)(Nc2ccccn2)c2ccccc2)C1 (stereo not given)	inactive: -1.13%
Cc1nn(-c2ccccc2)c2c1P(=O)(N1CCOCC1)N(C)C(c1ccccc1)=N2 (stereo not given)	inactive: 15.4%
Nc1cccc([As](=O)(O)c2ccccc2)c1	inactive: 16%
Cc1ccc(OCC(=O)OC2CN3CCC2CC3)cc1 (stereo not given)	inactive: 7.65%
O=[As](O)(c1cccs1)c1cccs1	inactive: -13.5%
NS(=O)(=O)c1cccc(NC(=O)COC(=O)C(O)(c2ccccc2)c2ccccc2)c1	inactive: 4.05%
O=P1(Nc2ccc(Br)cn2)COc2ccccc2OC1	inactive: -1.73%
O=P1(Nc2ncccn2)COc2ccccc2OC1	inactive: 8.64%
